- solubility (mole fraction) (in ethanol, 308.65 K): 0.0895
- solubility (mole fraction) (in n-propanol, 298.95 K): 0.0435
Compound: NC(=O)c1ccccc1N
